Assay results taken from ChEMBL document CHEMBL1240457, “Synthesis and biological evaluation of cyclic nitrogen mustards based on carnitine framework” (2010).
Some compounds may have been tested in ways that are not shown here.

Legend:
[1] = test system: NCI-H460; assay: Cytotoxicity against human H460 cells after 24 hrs by MTT assay
[2] = test system: A-375; assay: Cytotoxicity against human A375 cells after 24 hrs by MTT assay

Question: `CCCCCCCCCCCCCCCC(=O)O[C@H]1[C@@H](C(=O)O)CCC[C@@H]1N(CCCl)CCCl` was tested. Which CC50 [1] did it give?
Answer: The CC50 was 298 µM.

Question: What about the CC50 [2] of the same compound?
Answer: Its CC50 is 311 µM.

Question: How did the CC50 [1] turn out when `CCCCCCCC(=O)O[C@H]1[C@@H](C(=O)O)CCC[C@@H]1N(CCCl)CCCl` was run?
Answer: The CC50 was greater than 1000 µM.
